Measurements from patent publication US10324085B2, “Systems and methods for the monitoring of protein complex formation in cells” (priority 2013, dated 2019).

Amino acid sequences for entries named in this document (tags omitted). A change or cut given only in a name is not applied to a line headed by its entry.
UniProt Q92731: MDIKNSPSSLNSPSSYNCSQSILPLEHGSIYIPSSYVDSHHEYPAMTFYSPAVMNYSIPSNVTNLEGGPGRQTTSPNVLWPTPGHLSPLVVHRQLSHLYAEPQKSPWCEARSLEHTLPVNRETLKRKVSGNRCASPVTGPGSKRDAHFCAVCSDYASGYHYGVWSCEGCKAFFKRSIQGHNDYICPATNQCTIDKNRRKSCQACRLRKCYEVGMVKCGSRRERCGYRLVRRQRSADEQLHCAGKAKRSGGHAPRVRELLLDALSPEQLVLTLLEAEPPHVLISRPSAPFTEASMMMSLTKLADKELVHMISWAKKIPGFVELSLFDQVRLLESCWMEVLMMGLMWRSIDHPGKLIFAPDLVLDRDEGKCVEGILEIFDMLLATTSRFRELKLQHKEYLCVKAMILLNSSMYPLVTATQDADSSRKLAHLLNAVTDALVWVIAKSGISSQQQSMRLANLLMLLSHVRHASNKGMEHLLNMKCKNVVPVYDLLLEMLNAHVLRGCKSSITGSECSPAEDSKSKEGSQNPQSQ

Target: ERβ (Homo sapiens, UniProt Q92731)
Assay: BRET assay ERβ and CoApep-Venus

Substance: 4-hydroxytamoxifen
- recruitment of CoApep-Venus to ERβ, BRET: OHT-repressed
